Assay: In vivo pharmacokinetic evaluation in mice
Conditions: C57BL6 mice; for Peak concentration Cmax: plasma
Text: 2. In Vivo Pharmacokinetic Evaluation in Mice
To detect pharmacokinetic parameters of the compounds of the present disclosure in C57BL6 mice
The vehicle used in the experiment was: DMSO:Solutol:PBS=5%:25%:70% (v/v/v). Preparation method: The required compound was weighed accurately, added with a certain volume of DMSO in a certain proportion, vortex-mixed until completely dissolved, then added successively with Solutol and PBS according to the above proportion, and mixed well. The vehicles used in the intravenous (iv) administration group and oral (po) administration group were the same vehicles in the experiment. The intravenous dose was 1 mpk and the oral dose was 2 mpk. Experimental blood collection time points: IV group: 0.083, 0.25, 0.5, 1, 2, 4, 7, 24 h. PO group: 200 μL of whole blood was collected from jugular vein at each time point of 0.25, 0.5, 1, 2, 4, 7 and 24 h, anticoagulated with EDTA-K2, and immediately centrifuged at 4000 rpm for 5 minutes at 4° C. The supernatant was taken and the samples were frozen and stored in a refrigerator at −80° C. Processing of plasma samples: The sample was precipitated with ACN/MeOH (1:1, v/v) precipitant containing internal standard, then centrifuged at 14000 rpm for 5 minutes. The supernatant was taken into LC-MS/MS (AB Triple Quard 5500) for analysis to obtain plasma concentrations, and parameters were calculated by the non-compartmental model of Winnolin 8.1 version.

[1] = intragastric administration group po, 2 mpk
[2] = intravenous injection group iv, 1 mpk

O=C(c1cnc(N[C@@H]2CCc3ncccc32)nc1)N1CCC2(CCOCC2)C1
Area under the curve AUC0-7h [1]: 618.38 ng·h/mL
Clearance rate CL [1]: 54.635 mL/min/kg
Distributed solvent Vd [1]: 7.5 L/kg
Half-life T1/2 [1]: 1.56 h
Peak concentration Cmax [1]: 557.4 ng/mL
Area under the curve AUC0-7h [2]: 406.64 ng·h/mL
Clearance rate CL [2]: 40.2583 mL/min/kg
Distributed solvent Vd [2]: 8.6 L/kg
Half-life T1/2 [2]: 2.46 h
Peak concentration Cmax [2]: 722.5 ng/mL
Bioavailability F % (po 2 mpk vs iv 1 mpk): 76.4%

— patent US20240083873A1, “PYRIMIDINE CARBOXAMIDE COMPOUND AND APPLICATION THEREOF” (SHANGHAI MEIYUE BIOTECH DEVELOPMENT CO., LTD, priority 2020, published 2024)
